Tests used:
PD-L1 on N87-PDL1 cells = PD-L1 on N87-PDL1 cells (UniProt Q9NZQ7); test: flow cytometry (FACS) on N87-PDL1 cells
PDL1-ECD-hFc protein = PDL1-ECD-hFc protein (UniProt Q9NZQ7); test: bispecific ELISA for simultaneous binding of PD-L1 and EGFR; PDL1-ECD-hFc coated
PDL1-ECD-His protein [1] = biological target: PDL1-ECD-His protein (UniProt Q9NZQ7); test: ELISA, PDL1-ECD-His coated, HRP anti-human Fc detection
[2] = biological target: PD-L1 on PD-L1 aAPC/CHO-K1 cells (UniProt Q9NZQ7); test: cell-based or functional assay
PDL1-ECD-His protein [3] = biological target: PDL1-ECD-His protein (UniProt Q9NZQ7); test: SPR, Biacore 8K, antibody captured on Protein A, PDL1-His as analyte

Row | EC50 (PD-L1 on N87-PDL1 cells) [nM] | EC50 (PDL1-ECD-hFc protein) [nM] | EC50 (PDL1-ECD-His protein [1]) [nM] | IC50, PD-1/PD-L1 Blockade Bioassay (luminescence) [2] [nM] | Kd (PDL1-ECD-His protein [3]) [nM] | Substance
1 | 0.22 | 0.63 |  |  |  | anti-PDL1×EGFR BsAb2 (bispecific antibody; other documents disagree on this pair)
2 | 0.16 | 0.66 |  |  |  | anti-PDL1×EGFR BsAb1 (bispecific antibody; other documents disagree on this pair)
3 |  |  | 0.11 | 1.21 |  | anti-PDL1×EGFR BsAb2 (bispecific antibody)
4 |  |  | 0.11 | 1.06 | 0.965 | anti-PDL1×EGFR BsAb1 (bispecific antibody)

Source: patent US20230257465A1
